Data taken from ChEMBL document CHEMBL3352178, “Antidepressant- and anxiolytic-like activity of 7-phenylpiperazinylalkyl-1,3-dimethyl-purine-2,6-dione derivatives with diversified 5-HT₁A receptor functional profile” (Bioorg Med Chem, 2015).

Legend:
[1] = tested on: Mus musculus; test: Induction of hypothermia in mouse assessed as change in body temperature at 5 mg/kg, ip administered 30 mins before test and measured 30 mins post dose in presence of 0.3 mg/kg, sc 5HT1A receptor antagonist WAY 100635; format: functional, organism-based
[2] = tested on: Mus musculus; test: Induction of hypothermia in mouse assessed as change in body temperature at 5 mg/kg, ip administered 30 mins before test and measured 60 mins post dose in presence of 0.3 mg/kg, sc 5HT1A receptor antagonist WAY 100635; format: functional, organism-based
[3] = organism: Mus musculus; conditions: 0.3 mg/kg
[4] = organism: Mus musculus; conditions: 0.3 mg/kg; remark: listed apart in the source
[5] = organism: Mus musculus; conditions: 0.3 mg/kg; remark: listed apart in the source
[6] = organism: Mus musculus; conditions: 0.3 mg/kg; remark: listed apart in the source

Structure (SMILES): CCCN(CCC)C1CCc2cccc(O)c2C1 (stereo unspecified)
- deltaT [1]: -0.8 °C
- deltaT [2]: -0.1 °C

Structure (SMILES): COc1ccccc1N1CCN(CCN(C(=O)C2CCCCC2)c2ccccn2)CC1
- deltaT [3]: -0.1 °C
- deltaT [4]: -0.1 °C
- deltaT [5]: -0.2 °C
- deltaT [6]: 0 °C
